## Binding of CDR-mutated scFvs to a peptide of the spike HR2 region

Target: peptide PDVDLGDISGINAS, taken from heptad repeat 2 (HR2) of SARS-CoV-2 spike.

Ab-95 is the parent antibody, in scFv form: VH, then a (GGGGS)3 linker, then VL. The heavy chain is unchanged in all variants.
VH: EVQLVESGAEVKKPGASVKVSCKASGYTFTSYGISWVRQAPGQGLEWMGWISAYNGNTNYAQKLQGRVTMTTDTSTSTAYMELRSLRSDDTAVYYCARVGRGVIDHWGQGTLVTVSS
VL: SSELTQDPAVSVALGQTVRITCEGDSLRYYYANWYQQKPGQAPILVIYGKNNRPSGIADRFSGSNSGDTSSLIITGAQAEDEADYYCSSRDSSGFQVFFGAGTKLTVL

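The starting antibody came from a phage panning campaign against this peptide. The library (AAYL52) carries one to three amino acid substitutions per variant, with no insertions or deletions. The scFvs were displayed on barcoded MATa yeast, the peptide on MATalpha yeast. Binding brings cells together so that they mate, and sequencing counts the barcode pairs among the diploids. Each replicate has its own calibration line, from reference interactions of the BCL2 family. Each pool was mated in three replicate cultures.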

The parent's light chain CDRs are EGDSLRYYYAN, GKNNRPS, SSRDSSGFQVF; each variant's own CDRs replace them letter for letter. The read-out is the apparent dissociation constant on a log10 scale (nM): the lower, the stronger. An entry "ND" has no value in the source: the pair was not observed among the diploids in that replicate. This suggests poor binding but is not conclusive.

CDR-L1	CDR-L2	CDR-L3	replicates, log10 nM	empty controls
EGDYLRYYYAN	GKNNRAS	SSRDSSGFDVF	3.37 3.03 ND	1/9 (3.45)
LGDSLRYYYGN	GKNNRPS	SSRDSSGFYVF	4.04 3.64 3.91	2/9 (3.32)
KGDSLRYYYAN	GKNNRPI	SSRDSSGFQVF	1.96 1.77 1.46	1/9 (4.01)
NGTSLRYYYAN	GKNNRPS	SSRDSSGFSVF	2.99 3.39 3.17	5/9 (4.10)
DGDSLRYYYAN	SKNNRPM	SSRDSSGFQVF	ND ND ND	0/9
EGDSPRYWYAN	GKNNMPS	SSRDSSGFQVF	3.82 5.72 ND	3/9 (4.60)
YGDSLRYYYAN	DKNNHPS	SSRDSSGFQVF	ND 4.14 ND	4/9 (4.06)
EGCSLRKYYAN	GKNNRPS	SSRQSSGFQVF	4.34 ND ND	3/9 (3.03)
EGDSLRYYYAN	GKVNRDS	SSYDSSGFQVF	3.72 ND ND	2/9 (3.97)
EGDFLRYYYAQ	GKNNRPS	WSRDSSGFQVF	3.56 5.07 ND	2/9 (4.27)
EGPSLRYYYAN	GKVNRPS	SSRDSSGDQVF	5.08 5.63 4.30	1/9 (4.52)
EGDSLRYWYAN	GLNNRPS	SSRDSSGFQVE	ND 4.61 2.76	1/9 (5.04)
EGNSLRYYYAN	GKNVRKS	SSRDSSGFQVF	ND 3.58 3.07	0/9
EGDCLRYYYHN	GKDNRPS	SSRDSSGFQVF	ND ND ND	3/9 (2.89)
EGDSLRYHAEN	GKNNRPS	SSRDSSGFQVF	2.44 2.49 2.17	7/9 (4.01)
EGDSLPYYYAN	GKNNRPS	SSRDPSGFQVY	1.65 1.77 1.09	4/9 (3.64)
WGDSNRYYYAN	GKNMRPS	SSRDSSGFQVF	4.91 3.99 3.40	0/9
QGDSLRYYYAN	GKCNRPS	SSRWSSGFQVF	3.21 2.93 3.40	4/9 (4.13)
GGDSLRVYYAN	GKNNRPS	SSRDSSAFQVF	2.44 2.45 2.69	5/9 (4.08)
EGDMLRYYYKN	GKNNEPS	SSRDSSGFQVF	ND 4.79 ND	0/9
EGTSLRYYYAN	GKNNRPS	SSRDSSGLWVF	2.27 1.70 1.87	4/9 (3.84)
EGDSLRYYYAY	GKNNRVS	SSRDSSGFQMF	ND ND ND	2/9 (3.66)
EGDSLVFYYAN	GKNNRPS	SSPDSSGFQVF	3.42 ND ND	2/9 (3.70)
EGDSLRYYYAN	GKNNRPS	SSRDSSTDQVD	ND ND ND	2/9 (3.44)
EGSSLRYVYAN	GKNNRPS	SSRPSSGFQVF	2.60 1.94 2.08	2/9 (4.29)
EGDSLRYYYHN	RKNNRPS	SSRDSSGFQVD	3.45 ND ND	0/9
IGDSLRQYYAN	GKNNRPS	QSRDSSGFQVF	2.81 3.26 4.03	3/9 (3.49)
HGDSLRYYYAN	GKNNRPS	SSRDSSGFQDF	2.06 2.28 2.39	2/9 (3.91)
ESDSLRYYYAN	GKNNRPS	SSRDSSGFQYF	3.29 ND 3.55	0/9
EGDSLRYYYAV	SKNNRPS	QSRDSSGFQVF	3.35 ND ND	3/9 (4.03)
EGDSLRYYYAN	TKNNRPS	SSYDSSGFQVA	4.88 ND ND	1/9 (4.36)
EGDSLRYYYAN	SQNNRPS	SSRDTSGFQVF	ND ND 4.33	2/9 (3.97)
EGDSLRYYYAN	GKNNRPI	SLRDSSGMQVF	3.86 3.17 ND	2/9 (4.50)
EGDSLRYYYAN	HKNNRPS	SSTDSSGYQVF	4.16 ND 4.52	2/9 (4.53)
EGDSLANYYAN	GKNNRPS	SSRDSSGFQVF	1.40 1.12 0.65	1/9 (3.84)
EGDSLRYYYAN	MKNNDPS	SSRDSSGFQVF	4.36 ND ND	1/9 (2.79)
EGDSLRYYYAN	GKNNFPS	SSRWSNGFQVF	ND ND 3.99	4/9 (3.83)
EGDSLRDYYAN	GKNNRES	SSRDSSGMQVF	3.22 2.95 2.77	1/9 (3.39)
EGDSLRWLYAN	GKNNRPS	SSRDSSGFQVV	4.77 3.69 ND	1/9 (4.72)
YGDSLRYYGAN	GKNKRPS	SSRDSSGFQVF	2.48 2.18 2.35	3/9 (4.09)
EGDSLRYYYAN	GKNNRPS	SSRDSFGPNVF	2.94 3.09 3.54	5/9 (4.50)
EGDSLRYYYAN	GKNNWPS	PSRDDSGFQVF	4.82 ND ND	3/9 (4.71)
EGDSLRYYYVN	EKNNNPS	SSRDSSGFQVF	ND ND ND	3/9 (4.14)
EGDSLRYYYAN	GKNNRPI	SSRENSGFQVF	2.55 ND 4.13	2/9 (3.32)
EGDSLRYYYAN	GKNNRPS	SSRDSSGFQVC	2.98 2.76 2.48	4/9 (4.68)
SGDSLRYYYAN	GKHNRPS	SSRDSGGFQVF	3.47 4.50 4.37	1/9 (4.01)
EGDSLRYYYAN	GKYNRPS	WSRDLSGFQVF	ND ND ND	1/9 (3.67)
EGDRLRYYYAR	GKNNRPS	SSRDSPGFQVF	2.43 4.24 3.95	3/9 (3.54)
EGDFLRYYYNN	GKNNKPS	SSRDSSGFQVF	ND 3.82 ND	3/9 (3.99)
EGDSLEYQYAN	GKNNRPS	SSRDSSGFLVF	1.27 1.21 0.78	5/9 (4.45)

The 6 strongest on average among those seen in every replicate, once more:

CDR-L1,CDR-L2,CDR-L3,"replicates, log10 nM",empty controls
EGDSLANYYAN,GKNNRPS,SSRDSSGFQVF,1.40 1.12 0.65,1/9 (3.84)
EGDSLEYQYAN,GKNNRPS,SSRDSSGFLVF,1.27 1.21 0.78,5/9 (4.45)
EGDSLPYYYAN,GKNNRPS,SSRDPSGFQVY,1.65 1.77 1.09,4/9 (3.64)
KGDSLRYYYAN,GKNNRPI,SSRDSSGFQVF,1.96 1.77 1.46,1/9 (4.01)
EGTSLRYYYAN,GKNNRPS,SSRDSSGLWVF,2.27 1.70 1.87,4/9 (3.84)
EGSSLRYVYAN,GKNNRPS,SSRPSSGFQVF,2.60 1.94 2.08,2/9 (4.29)

In this assay the parent's reference entry averaged 2.31; its copy inside this library read 2.25. Nonspecific signal, from three strains lacking the peptide, appeared in 28% of pairings of library AAYL52, centred on 3.91 (5% of these signals below 2.90); values are not corrected for it. For each scFv, signals with the empty controls are counted beside the result, with their mean in brackets.

Data: MIT Lincoln Laboratory AlphaSeq set, Engelhart et al. 2022, doi:10.1038/s41597-022-01779-4, as distributed in FLAb.